Measured affinities in a library of Ab-14 light chain variants

Source: Li et al. 2023 (doi:10.1038/s41467-023-39022-2), MIT Lincoln Laboratory and A-Alpha Bio; data file from the FLAb repository.

Antigen: PDVDLGDISGINAS, a 14-residue peptide of the SARS-CoV-2 spike HR2 region.

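The variants were designed computationally from a first round of random CDR variants and then made and measured. Their group label is 14L_En_HC (En: ensemble of fine-tuned language models; HC: hill climbing; a sequence that several methods proposed may carry one label only). AlphaSeq pools MATa yeast showing the antibodies with MATalpha yeast showing the peptide. Mating (16 h, 30 °C) was followed by selection of diploids and sequencing of their barcodes. Each replicate has its own calibration line, from reference interactions of the BCL2 family. Mating was done six times.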

Ab-14 is the parent antibody, in scFv form: VH, then three GGGGS repeats, then VL. The heavy chain is unchanged in all variants.
VH: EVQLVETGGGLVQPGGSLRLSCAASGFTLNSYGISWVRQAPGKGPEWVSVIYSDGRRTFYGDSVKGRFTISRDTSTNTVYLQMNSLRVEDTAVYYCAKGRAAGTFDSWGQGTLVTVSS
VL: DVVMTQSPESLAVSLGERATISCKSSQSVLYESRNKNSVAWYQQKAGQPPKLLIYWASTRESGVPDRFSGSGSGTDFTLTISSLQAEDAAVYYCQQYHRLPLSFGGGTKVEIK

The parent's light chain CDRs are KSSQSVLYESRNKNSVA, WASTRES, QQYHRLPLS; each variant's own CDRs replace them letter for letter. Scale: log10 of Kd in nM, estimated from mating counts; low values are strong binders. Averages over replicates are reported, and they cover detected replicates only. An entry "n.d." has no value in the source: the pair was not observed among the diploids in that replicate. This suggests poor binding but is not conclusive. Values of this round are not directly comparable with the first-round values of the same sequences. Empty control strains, which show no peptide, gave a signal in 4% of pairings with all light chain designs; the median was 2.64 and 95% of these signals were weaker than 1.59. No background was subtracted. The control count says in how many pairings with the empty strains this scFv gave a signal, with their mean in brackets. The parent sequence was in this pool as ten entries: three were never detected, three once, and four in most replicates, with averages from 0.34 to 2.37. In the paper, a design with two or fewer of six values counts as a poor binder.

CDR-L1 | CDR-L2 | CDR-L3 | log10 Kd, replicates | log10 Kd (nM), mean | control signals
KLRQVTGYEMYNKNSVA | QTSTRVN | QDYHRLPLS | 1.06 0.91 0.60 0.68 0.85 0.80 | 0.82 | 2/18 (2.55)
MIAESVMYQSRNRNSVA | DNSTRED | QCYDRLPLS | 0.82 1.07 1.52 0.88 1.13 1.46 | 1.15 | 1/18 (2.81)
TISQLMLYETRNKNNVA | GTSTRES | QCYHRLPLS | -0.03 0.24 -0.10 0.17 0.10 0.00 | 0.06 | 2/18 (2.21)
TISQSFMMENQFKNSVA | QANTRES | QCYDRLPLS | 0.92 1.16 1.14 1.43 1.56 1.07 | 1.21 | 3/18 (2.96)
TISTSALYESVNKNSVA | ELTTRGS | QQYERLPLS | 1.68 1.51 1.76 1.19 0.98 0.98 | 1.35 | 0/18
TVSQVHEMLSHNKNSVA | DMNTRER | QQYDRLPLS | 0.59 0.62 0.70 0.40 0.56 0.93 | 0.63 | 0/18
KISMLQRYESQVKNNIA | EMSRREE | QQYHRLPLS | 0.39 0.17 0.33 0.16 0.43 0.33 | 0.30 | 0/18
IFSQSVLMGNMTRNSVA | QASTRFN | QQYDRLPLI | n.d. n.d. n.d. n.d. n.d. n.d. | n.d. | 1/18 (1.58)
KLGDMVHTESRNKNSIA | DLRTRES | QQYYRLPLS | -0.46 -0.06 -0.41 -0.40 -0.52 -0.42 | -0.38 | 0/18
KIYHGVTGTSRKGNSVA | QAETRLD | QQYHRLPLM | n.d. 1.17 1.15 1.42 1.03 1.08 | 1.17 | 0/18
TLSQSWGMESRNHNNVA | QESTREK | QQYFRLPIS | 0.33 0.25 0.15 0.00 0.07 0.16 | 0.16 | 2/18 (4.01)
TISESTYWESRNKNSVA | QTSTREE | QDYDRLPLS | 0.74 0.68 0.64 0.45 0.66 0.63 | 0.63 | 1/18 (4.00)
KISQSVLFFGHAINSVA | EMETREN | QQYDRLPLS | 1.16 0.96 1.36 1.20 1.53 1.40 | 1.27 | 2/18 (3.18)
KISFQYRYEQLNKNSIA | EVQTRLK | QQYHRLPLS | 0.81 0.89 1.06 0.86 1.23 1.06 | 0.98 | 2/18 (2.62)
TLTQVTMVESYVKNSVA | QASTREE | QDYHRLPLS | 0.52 0.07 -0.15 0.92 -0.01 0.05 | 0.23 | 0/18
MFSDLVKMGSRNTNSVA | DNSTRGS | QQYDRLPLS | 0.65 0.44 0.93 1.33 3.64 1.10 | 1.35 | 1/18 (1.53)
HISQMVMAGSCNKNNVA | QVSTREE | QQYHRLPLS | 1.88 0.25 0.94 0.76 0.40 1.10 | 0.89 | 0/18
SIAESAHLESRNKNSVA | DNTTRES | QHYDRLPLS | 2.09 n.d. n.d. n.d. n.d. n.d. | 2.09 | 0/18
TVSQVHEMLTHNKNSVA | DMNTRES | QQYDRLPLS | 0.38 0.13 0.05 0.01 -0.27 0.11 | 0.07 | 0/18
TISQSVNMTSRGKNSVA | QAEMRES | QQYDRLPLS | 2.18 1.19 0.90 2.23 1.59 1.17 | 1.54 | 1/18 (2.92)
KLSIFHQVEQINKSNVA | EMVTRES | QQYDRLPLS | n.d. n.d. 0.95 1.50 0.78 n.d. | 1.08 | 0/18
KLAESVAMTSHHINSVA | QSTTREE | QQYNRLPLS | 0.46 0.60 0.50 0.53 0.46 0.62 | 0.53 | 0/18
KLSQMVGYESRNKSRVA | DNSTRES | QQYDRLPLS | n.d. n.d. n.d. 1.78 1.70 n.d. | 1.74 | 0/18
TLTQSVGMESHNKNSVA | DLDTRGS | QQYHRLPLS | -0.25 -0.35 0.40 -0.21 0.17 -0.10 | -0.06 | 0/18
KLSVMTSYLSVNKNSVA | EMSTRES | QQYDRLPLS | 0.84 0.92 0.64 0.92 1.08 0.68 | 0.85 | 0/18
KLTQFYRMESRNKNSVA | DNSTRES | QDYDRLPLS | n.d. n.d. n.d. n.d. n.d. n.d. | n.d. | 1/18 (3.24)
KLTIMGLHQSIDKKSIA | ERSTREN | QQYHRLPLS | 1.13 0.98 0.76 0.88 1.10 1.03 | 0.98 | 0/18
KISQMVWYESTWWNAIA | QTSTREE | QQYHRLPLS | n.d. n.d. n.d. n.d. n.d. n.d. | n.d. | 0/18
KIGGVTNGISRNKNSVA | EQSTRED | QQYNRLPLF | 1.11 0.67 0.52 0.59 0.44 0.04 | 0.56 | 0/18
KISQMVNYESTHVNAVA | QMSTREE | QQYNRLPLS | 0.54 0.26 0.31 0.05 0.28 0.21 | 0.28 | 2/18 (3.15)
NIYHGVTGTSRKGNSVA | QAETRLD | QQYHRLPLM | 0.94 0.48 0.43 0.65 0.54 0.94 | 0.66 | 0/18
KLSQVTHSESRVKNSIA | EMVTREV | QQYDRLPLS | 0.70 0.63 0.85 0.56 0.77 1.18 | 0.78 | 0/18
KISSLTMYESVNKNNIA | EMSTRPD | QSYHRLPLS | 0.29 0.15 0.02 0.29 0.18 0.27 | 0.20 | 2/18 (3.20)
TISQLMLYESRNKNNVA | GTSTRES | QCYHRLPLS | 1.64 1.43 1.10 1.06 1.35 1.15 | 1.29 | 1/18 (3.48)
MIAQGLRGVGRNKNSVA | NAQTRED | QHYHRLPLS | n.d. 1.58 2.46 1.67 1.03 1.54 | 1.66 | 1/18 (2.75)
KISYMGEYFSTQHSAIA | QASTREQ | QQYHRLPLS | 0.40 0.31 0.17 0.15 0.19 0.40 | 0.27 | 0/18
TISQTAQMESHNKNSVA | DLNVRGS | QQYDRLPLS | 0.52 0.44 0.46 0.41 0.49 0.76 | 0.51 | 3/18 (2.20)
MMSMGYLGGMRARNNVA | QEETRVK | QQYHRLPLI | 1.41 2.63 0.82 1.62 1.96 1.26 | 1.62 | 0/18
KLSQSVNMTGKNKNSVA | ELTFRES | QQYERLPLS | 1.63 2.39 1.69 3.21 1.67 2.07 | 2.11 | 1/18 (3.58)
MISDMGLHDSRIKNSVA | NNSTREA | QQYDRLPLS | 2.21 2.96 1.87 3.45 1.72 2.29 | 2.42 | 1/18 (2.67)
KISQSMLFMSGKKNAIA | QMEMREE | QQYDRLPLS | 1.03 1.08 1.01 0.86 2.06 2.20 | 1.37 | 1/18 (2.44)
KISYMGEYFSTNHSSIA | QASTRLQ | QQYHRLPLS | 0.79 0.67 0.13 0.45 0.33 0.41 | 0.46 | 0/18
MFSQLMGYGSRYKNSVA | QASTRED | QQYHWLPLS | 2.10 1.58 0.68 0.93 0.98 1.82 | 1.35 | 0/18
KLSQSVMFMSGVYNSVA | QMSTRAE | QQYNRLPLI | 0.36 0.63 -0.15 0.08 0.02 0.62 | 0.26 | 0/18